# Earlier results as cited in patent US20220031684A1, “PROPHYLACTIC EFFICACY OF SEROTONIN 4 RECEPTOR AGONISTS AGAINST STRESS” (THE TRUSTEES OF COLUMBIA UNIVERSITY IN THE CITY OF NEW YORK, priority 2019, published 2022).
# Tested on: 5-HT4R
# Conditions: vs other receptors; cited from earlier work
compound,measurement,value
"COCCCN1CCC(NC(=O)c2cc(Cl)c(N)c3c2OCC3)CC1 [Prucalopride, 4-amino-5-chloro-2,3-dihydro-N-[1-3-methoxypropyl)-4-piperidinyl]-7-benzofuran carboxamide monohydrochloride]",selectivity for 5HT4R,>290-fold

# Where a name gives a salt, the structure may show the parent alone.
